A word on the AC50: it is the concentration giving half of the maximal activity seen.

Amino acid sequences for entries named in this document (tags omitted). A change or cut given only in a name is not applied to a line headed by its entry.
UniProt P10242: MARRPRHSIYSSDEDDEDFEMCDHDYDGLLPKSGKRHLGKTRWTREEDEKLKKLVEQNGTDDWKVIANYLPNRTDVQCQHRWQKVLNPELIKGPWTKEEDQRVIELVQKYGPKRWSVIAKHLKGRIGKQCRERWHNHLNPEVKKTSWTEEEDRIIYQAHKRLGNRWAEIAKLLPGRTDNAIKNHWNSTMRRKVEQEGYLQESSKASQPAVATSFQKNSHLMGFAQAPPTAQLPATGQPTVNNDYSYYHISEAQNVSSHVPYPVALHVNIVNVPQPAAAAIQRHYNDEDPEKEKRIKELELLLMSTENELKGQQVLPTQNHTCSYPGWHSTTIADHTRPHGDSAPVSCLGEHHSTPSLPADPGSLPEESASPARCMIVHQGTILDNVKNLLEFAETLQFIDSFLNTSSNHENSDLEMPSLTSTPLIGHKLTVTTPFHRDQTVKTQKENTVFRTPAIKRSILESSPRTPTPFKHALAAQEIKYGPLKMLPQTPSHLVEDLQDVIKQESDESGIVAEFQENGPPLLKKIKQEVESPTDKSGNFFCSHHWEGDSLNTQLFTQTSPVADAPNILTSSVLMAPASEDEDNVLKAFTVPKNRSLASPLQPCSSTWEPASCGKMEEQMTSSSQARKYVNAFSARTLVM
UniProt Q16656: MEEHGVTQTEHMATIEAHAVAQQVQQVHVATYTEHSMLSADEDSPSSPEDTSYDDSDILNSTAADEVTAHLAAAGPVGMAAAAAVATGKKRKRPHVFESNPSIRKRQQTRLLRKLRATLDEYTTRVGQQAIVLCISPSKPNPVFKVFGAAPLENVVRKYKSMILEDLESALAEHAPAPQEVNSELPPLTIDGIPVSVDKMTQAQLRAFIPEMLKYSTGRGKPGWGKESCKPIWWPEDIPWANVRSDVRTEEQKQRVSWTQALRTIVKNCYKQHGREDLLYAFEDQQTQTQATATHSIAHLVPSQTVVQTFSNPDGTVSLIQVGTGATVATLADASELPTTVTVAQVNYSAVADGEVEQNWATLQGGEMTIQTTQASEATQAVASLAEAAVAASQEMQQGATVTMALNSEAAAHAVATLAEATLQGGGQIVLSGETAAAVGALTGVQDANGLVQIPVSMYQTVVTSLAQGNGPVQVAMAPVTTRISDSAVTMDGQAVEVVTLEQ
UniProt P01106: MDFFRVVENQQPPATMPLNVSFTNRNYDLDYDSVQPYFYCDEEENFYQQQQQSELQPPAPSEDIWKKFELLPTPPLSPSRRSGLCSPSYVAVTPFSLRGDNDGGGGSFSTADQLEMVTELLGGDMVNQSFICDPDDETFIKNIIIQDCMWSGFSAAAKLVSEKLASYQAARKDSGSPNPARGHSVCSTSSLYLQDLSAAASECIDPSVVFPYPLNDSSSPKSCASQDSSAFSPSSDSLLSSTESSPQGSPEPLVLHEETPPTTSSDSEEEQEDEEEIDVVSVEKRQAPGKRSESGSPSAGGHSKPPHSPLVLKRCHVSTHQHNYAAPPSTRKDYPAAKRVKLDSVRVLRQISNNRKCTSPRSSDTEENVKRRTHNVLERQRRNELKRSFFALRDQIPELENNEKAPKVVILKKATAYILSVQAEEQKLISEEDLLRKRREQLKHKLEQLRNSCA
UniProt P04637, whole entry, looked up: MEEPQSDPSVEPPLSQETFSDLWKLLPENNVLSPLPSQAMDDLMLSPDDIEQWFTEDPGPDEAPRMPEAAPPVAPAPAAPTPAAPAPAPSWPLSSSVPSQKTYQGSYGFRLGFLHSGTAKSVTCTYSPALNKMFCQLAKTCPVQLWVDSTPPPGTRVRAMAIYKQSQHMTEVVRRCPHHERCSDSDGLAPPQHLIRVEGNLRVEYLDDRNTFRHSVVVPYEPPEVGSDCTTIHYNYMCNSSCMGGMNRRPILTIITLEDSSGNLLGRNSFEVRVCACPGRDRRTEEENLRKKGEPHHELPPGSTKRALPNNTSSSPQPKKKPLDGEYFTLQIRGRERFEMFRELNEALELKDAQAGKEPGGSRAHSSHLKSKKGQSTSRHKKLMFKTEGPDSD
UniProt P43354, whole entry, looked up: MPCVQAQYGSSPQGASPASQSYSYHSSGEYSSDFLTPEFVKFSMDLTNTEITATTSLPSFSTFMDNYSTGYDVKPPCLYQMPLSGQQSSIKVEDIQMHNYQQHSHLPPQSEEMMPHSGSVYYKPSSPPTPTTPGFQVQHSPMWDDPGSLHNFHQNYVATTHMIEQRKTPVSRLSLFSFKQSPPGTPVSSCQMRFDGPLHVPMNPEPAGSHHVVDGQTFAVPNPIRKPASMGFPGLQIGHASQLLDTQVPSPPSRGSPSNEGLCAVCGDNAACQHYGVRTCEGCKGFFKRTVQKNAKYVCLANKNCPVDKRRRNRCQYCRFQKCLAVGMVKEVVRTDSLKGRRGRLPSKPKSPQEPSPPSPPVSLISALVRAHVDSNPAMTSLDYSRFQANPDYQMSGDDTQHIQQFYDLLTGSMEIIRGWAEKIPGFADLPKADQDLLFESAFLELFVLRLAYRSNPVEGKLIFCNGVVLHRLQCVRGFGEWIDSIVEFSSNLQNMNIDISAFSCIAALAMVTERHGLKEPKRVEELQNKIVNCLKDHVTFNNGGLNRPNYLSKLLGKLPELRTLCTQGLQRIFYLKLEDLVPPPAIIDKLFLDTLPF

SMILES strings stand for the structures. “And” between values parts separate entries of the source, which are not always exact repeats. Identical values can stand only once. The list shows a part of the results, in another mix than the full data. Results filed as inconclusive are left out. Some compounds were tested as several samples or in several runs, with calls that do not always agree. The source made the active and inactive calls. The calls were made as follows, unless noted: active = hit-call score of the fitted dose curve at least 0.9, where 1 is the maximum; inactive = score below 0.9.

Assay [1] can be described thus: ATG_M_32_TRANS: Attagene TRANS-FACTORIAL HepG2 Assay for M32 Transcription Factor (Internal Marker) (AID 2282984; active = hit-call score of the fitted dose curve at least 0.9, where 1 is the maximum). The settings on record: HepG2 Attagene TRANS M32 internal marker reporter. In a few lines:
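HepG2 cells transiently transfected with multiple GAL4-UAS reporter transcription units, dosed for 24 hours; reporter mRNA quantified by RT-PCR, 6-FAM primer extension, HpaI digestion and capillary electrophoresis. Gain-of-signal fitted versus DMSO baseline; internal background-control marker.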

For assay [2], the target named is Transcriptional activator Myb (Homo sapiens) (UniProt P10242). Description: ATG_Myb_CIS: Attagene CIS-FACTORIAL HepG2 Assay for human Myeloblastosis (Myb) Proto-Oncogene Transcription Factor (AID 2282986). The settings on record: HepG2 Attagene CIS-FACTORIAL Myb reporter transcription; actives raise or lower the signal. The method, boiled down:
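Reporter transcript levels, quantified by fluorescent RT-PCR and capillary electrophoresis, serve as the read-out. Transfected HepG2 cells carrying cis-promoter reporter units are dosed for 24 hours, and curves are fitted bidirectionally against DMSO controls.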

Assay [3] has as its target Nuclear respiratory factor 1 (Homo sapiens) (UniProt Q16656). Description: ATG_NRF1_CIS: Attagene CIS-FACTORIAL HepG2 Assay for human Nuclear Respiratory Factor 1 (NRF1) Orphan Gene (AID 2282987). The settings on record: HepG2 NRF1 cis-element reporter, Attagene multiplex; actives raise or lower the signal. In a few lines:
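Multiplexed cis-reporter assay, HepG2 cells, 24 h treatment. Total RNA → oligo(dT) RT → PCR with reporter-specific primers → 6-FAM primer extension → HpaI cut → CE. Bidirectional fit vs DMSO.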

Assay [4] deals with Myc proto-oncogene protein (Homo sapiens) (UniProt P01106). Put plainly: ATG_Myc_CIS: Attagene CIS-FACTORIAL HepG2 Assay for human Myelocytomatosis (Myc) Proto-Oncogene Transcription Factor (AID 2282990). The settings on record: HepG2, Attagene cis-reporter transcription factor activity; actives raise or lower the signal. In a few lines: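 DMSO-normalised, bidirectionally fitted reporter mRNA signal. HepG2 cells transfected with cis reporter constructs, treated 24 h; transcripts detected by RT-PCR, 6-FAM primer extension and CE.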

The nature of assay [5]: ATG_NF_kB_CIS: Attagene CIS-FACTORIAL HepG2 Assay for human Nuclear Factor Kappa B (NF-kB) (AID 2282991). The settings on record: HepG2 Attagene cis-factorial NF-kB reporter mRNA; actives raise or lower the signal. The method, boiled down: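 Transient MRTU transfection of human HepG2 liver cells → 24 h chemical exposure → total RNA, oligo(dT) RT → PCR, 6-FAM primer extension, HpaI digest 2 h 37 C → CE fragment analysis. Bidirectional fitting, DMSO negative control.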

The nature of assay [6]: ATG_NRF2_ARE_CIS: Attagene CIS-FACTORIAL HepG2 Assay for human Nuclear Factor Erythroid 2 Related Factor 2 (NFR2) response to Antioxidant Response Elements (ARE) (AID 2282992).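 As to AC50: reporter mRNA level measured by RT-PCR and capillary electrophoresis fluorescence.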 The settings on record: HepG2 Attagene ARE/NRF2 reporter, transcription factor activity; actives raise or lower the signal. The method, boiled down: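 Multiplexed reporter mRNA profiling in HepG2 after a 24 h chemical exposure. Curves fitted in both directions relative to DMSO negative control.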

In assay [7] the target is Cellular tumor antigen p53 (Homo sapiens) (UniProt P04637). Description: ATG_p53_CIS: Attagene CIS-FACTORIAL HepG2 Assay for human p53 Transcription Factor (AID 2282994). The settings on record: HepG2 p53 cis-element reporter, Attagene mRNA; actives raise or lower the signal. In a few lines:
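Multiplexed reporter mRNA assay in human HepG2 liver cells; cis-regulated units report endogenous factor activity. Values come from bidirectional curve fitting against DMSO negative control after 24 h treatment.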

Assay [8] in a line: BSK_3C_TissueFactor: BioMAP Diversity Plus: 3C Assay for Tissue Factor Biomarker Activity (AID 2282997). The settings on record: BioMAP 3C HUVEC, tissue factor biomarker readout; actives raise or lower the signal. In a few lines:
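Dosing of human umbilical vein endothelial cells preceded a 24 h incubation. Tissue Factor was then read by ELISA, with increases and decreases both scored relative to DMSO controls.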

Assay [9] in a line: BSK_3C_uPAR: BioMAP Diversity Plus: 3C Assay for Urokinase-type plasminogen activator receptor (uPAR) Biomarker Activity (AID 2282998). The settings on record: BioMAP 3C HUVEC, uPAR biomarker ELISA; actives raise or lower the signal. In a few lines: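 Cell-surface uPAR on HUVEC (3C system) read by ELISA at 24 h post-treatment, with DMSO as baseline and fitting in both directions. Parallel cultures stained with SRB to flag overt cytotoxicity.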
For orientation: In an ELISA, binding on a coated surface is turned into a signal by an enzyme label.

Assay [10] deals with Nuclear receptor subfamily 4 group A member 2 (Homo sapiens) (UniProt P43354). Description: ATG_NURR1_TRANS: Attagene TRANS-FACTORIAL HepG2 Assay for human Nuclear Receptor Related Protein 1 (NURR1) (AID 2282985; active = hit-call score of the fitted dose curve at least 0.9, where 1 is the maximum). The settings on record: HepG2 Attagene TRANS reporter, mRNA readout. In a few lines:
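HepG2 cells transiently transfected with GAL4-UAS reporter units and chimeric NR-Gal4 constructs; chemical exposure 24 h. Reporter mRNA quantified by RT-PCR, fluorescent labelling and capillary electrophoresis; gain of signal fitted relative to DMSO baseline.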

`O=[N+]([O-])c1ccc([N+](=O)[O-])cc1`: the call in [1], in assay [5], in assay [7], in assay [8] and in assay [9] was inactive. Further, the AC50 in assay [2] was active: 149 µM; in [3], active: 163 µM; in assay [4] it was active: 100 µM; in assay [6], active: 70.8 µM.

Take `N#CSc1ccc([N+](=O)[O-])cc1[N+](=O)[O-]`: the compound was called inactive in assay [1], in [2], in [3], in assay [4] and in assay [7].

Take `O=[P+](Oc1ccccc1)Oc1ccccc1`: the compound was called inactive in assay [1], in assay [2], in [3], in assay [4], in assay [6] and in assay [7].

For the compound `ClP(Cl)c1ccccc1`, the call in assay [1], in [10], in [2], in [3], in assay [4] and in assay [5] was inactive. Besides, the compound was called inactive in assay [6] and in assay [7].

For `O=C1C2CC=CCC2C(=O)N1SC(Cl)(Cl)C(Cl)Cl` (stereo unspecified), the compound was classed as inactive in assay [1], in assay [2], in assay [3], in assay [4], in [5] and in [6]. Besides, in [7], the outcome was inactive. For the same compound, the half-maximal activity concentration (AC50) in assay [8] was active: 9.17 µM.

`CCCCC(CC)CO[P+](=O)OCC(CC)CCCC` (stereo unspecified): the call in [2], in assay [3], in assay [4], in assay [5], in assay [6] and in assay [7] was inactive.

In the case of `CC(C)OP(=S)(OC(C)C)SCCNS(=O)(=O)c1ccccc1`, the result in assay [10], in assay [2], in assay [3], in [4] and in assay [8] was inactive. In addition, the AC50 in assay [6] was active: 98.7 nM and active: 71.2 nM and active: 95.8 nM; in assay [8], active: 26.6 µM and active: 34.2 µM.

For `CC(C)CCCCCCCOP(OCCCCCCCC(C)C)Oc1ccccc1`, the compound was classed as inactive in [1], in assay [2], in assay [3], in assay [4], in assay [5] and in assay [7]. In assay [6], the AC50 is active: 60.3 µM.

With `Cc1cc([N+](=O)[O-])cc([N+](=O)[O-])c1O`, the outcome in [1], in [2], in [3], in assay [4], in [5] and in assay [7] was inactive. In addition, the outcome in assay [8] was inactive. For the same compound, the AC50 in [9] was active: 14.6 µM.

In the case of `O=C(Cl)OCCOC(=O)Cl`, the result in assay [2], in assay [3], in [4], in assay [5], in [6] and in assay [7] was inactive.

In the case of `CCCCOP(OCCCC)OCCCC`, the outcome in [2], in assay [3], in [4], in assay [5], in assay [6] and in assay [7] was inactive.

For `O=[p+]1oc2ccccc2c2ccccc21` (stereo unspecified), the outcome in assay [1], in assay [10], in [2], in assay [3], in [4] and in [5] was inactive. In assay [6], the compound was called inactive.

Take `O=C(Cl)Oc1ccccc1`: the result in assay [1], in assay [2], in assay [3], in [4], in [5] and in assay [7] was inactive. Moreover, the outcome in [8] and in assay [9] was inactive. In addition, the AC50 in assay [6] is active: 37.8 µM.

For the compound `CN(C(=O)Cc1cccc2occc12)[C@H]1CC[C@@]2(CCCO2)C[C@@H]1N1CCCC1`, the outcome in assay [1], in [2], in assay [3], in assay [4], in assay [6] and in assay [7] was inactive. For the same compound, the outcome in assay [8] and in assay [9] was inactive. Also, the AC50 in [5] was active: 147 µM.

Take `O=P(Cl)(Oc1ccccc1)Oc1ccccc1`: the outcome in assay [1], in assay [10], in [2], in [3], in [4] and in assay [5] was inactive. Besides, the call in assay [6] and in [7] was inactive.

As for `O=[As]c1ccccc1` (stereo unspecified), the compound was called inactive in assay [1] and in assay [10]. Also, the AC50 was active: 0.412 µM in assay [2], active: 0.278 µM in assay [4] and active: 0.104 µM in assay [6].

Consider `CCCCO[P+](=O)OCCCC`, for which the call in [1], in [2], in [3], in assay [4], in assay [5] and in assay [6] was inactive. In [7], the call was inactive.

The values above are taken from PubChem BioAssay (EPA / NIEHS).
